Source: ChEMBL document CHEMBL4346760, “Alkynamide phthalazinones as a new class of TbrPDEB1 inhibitors (Part 2)” (Bioorg Med Chem, 2019)

Assay: Selectivity index, ratio of pKi for Trypanosoma brucei PDEB1 to pKi for human PDE4B using cAMP as substrate incubated for 20 mins by PDELight HTS cAMP phosphodiesterase Kit based luminometry

Q: Which Ratio pKi does the source give for `COc1ccc(C2=NN(C3CCCCCC3)C(=O)[C@@H]3CC=CC[C@H]23)cc1C#CC(N)=O` here?
A: -0.3

Q: With `COc1ccc(C2=NN(C(C)C)C(=O)[C@@H]3CC=CC[C@H]23)cc1C#CC(=O)NCC1CCCO1` (relative stereo) as the compound, how does the Ratio pKi read?
A: 0.5

Q: Which Ratio pKi does the source give for `COc1ccc(C2=NN(C(C)C)C(=O)[C@@H]3CC=CC[C@H]23)cc1C#CC(=O)NCc1ccncc1` (relative stereo) here?
A: 6

Q: With `COc1ccc(C2=NN(C(C)C)C(=O)[C@@H]3CC=CC[C@H]23)cc1C#CC(=O)NCc1cnn(C)c1` as the compound, how does the Ratio pKi read?
A: 0.7
